In ChEMBL document CHEMBL1132850, “Design, synthesis and structure-activity relationship of a series of arginine aldehyde factor Xa inhibitors. Part 1: structures based on the (D)-Arg-Gly-Arg tripeptide sequence” (Bioorg Med Chem Lett, 2000):

Molecular target: Prothrombin (Homo sapiens, UniProt P00734)
Assay: Inhibitory activity against coagulation factor II (thrombin).

C[C@@H](NC(=O)C(CCCN=C(N)N)NC(=O)OC(C)(C)C)C(=O)N[C@H](C=O)CCCN=C(N)N (single isomer, unassigned) was tested, and the IC50 was over 10 µM.

For CC(C)(C)OC(=O)NC(CCCN=C(N)N)C(=O)NCC(=O)N[C@H](C=O)CCCN=C(N)N (single isomer, unassigned; 4), the IC50 was 79 µM.
